According to article PMC3785825 (Journal of the Royal Society Interface, 2013):

How the values were obtained:
[1] = test system: CLR Y277A/RAMP1 (CGRP receptor); test: CGRP radioligand binding, Y277A mutant; details: Y277A: not reduced (exception); [^125I] iodohistidyl-human alpha CGRP, Cos 7 cell membranes
From the text: (§1) Accordingly, an ELISA to measure receptors at the cell surface was used (see the electronic supplementary materials, table S3). All of the mutants were expressed at the cell surface to within approximately 60% of WT levels. Reductions to this level of expression has been previously shown to have little effect on the potency of CGRP-mediated cAMP signalling for this or CTR expressed in Cos 7 cells and in this study, there was only a very low correlation between expression and pEC50 (r^2 = 0.23).

[2] = test system: CLR S285A/RAMP1 (CGRP receptor); test: CGRP-stimulated cAMP (LANCE), S285A mutant; format: cell-based, human; details: residue S285; effect of alanine mutation on CGRP
From the text: (§2) Curve fitting was done with […]
(§3) These residues were selected as they are most likely to incorporate the whole of ECL2 and approximately one turn of helices 4 and 5 immediately adjacent to the loop, based on our previous analysis. […] These are R274A, Y278A, D280A, C282A, W283A, I284A and T288A.

[3] = test system: CLR W283A/RAMP1 (CGRP receptor); test: CGRP-stimulated cAMP (LANCE), W283A mutant; format: cell-based, human
From the text: as §2, §3

[4] = test system: CLR N281A/RAMP1 (CGRP receptor); test: CGRP-stimulated cAMP (LANCE), N281A mutant; format: cell-based, human; details: Cos 7 cells
From the text: as §2, §3

[5] = test system: CLR R274A/RAMP1 (CGRP receptor); test: CGRP-stimulated cAMP (LANCE), R274A mutant; format: cell-based, human
From the text: as §2, §3

[6] = test system: CLR L290A/RAMP1 (CGRP receptor); test: CGRP-stimulated cAMP (LANCE), L290A mutant; format: cell-based, human
From the text: as §2, §3

[7] = test system: CLR C282A/RAMP1 (CGRP receptor); test: CGRP-stimulated cAMP (LANCE), C282A mutant; format: cell-based, human
From the text: as §2, §3

[8] = test system: CLR I294A/RAMP1 (CGRP receptor); test: CGRP-stimulated cAMP (LANCE), I294A mutant; format: cell-based, human; details: Cos 7 cells
From the text: as §2, §3

[9] = test system: CLR Y292A/RAMP1 (CGRP receptor); test: CGRP-stimulated cAMP (LANCE), Y292A mutant; format: cell-based, human; details: Cos 7 cells
From the text: as §2, §3

[10] = test system: CLR Y277A/RAMP1 (CGRP receptor); test: CGRP-stimulated cAMP (LANCE), Y277A mutant; format: cell-based, human; details: residue Y277; effect of alanine mutation on CGRP
From the text: as §2, §3

[11] = test system: CLR I284A/RAMP1 (CGRP receptor); test: CGRP-stimulated cAMP (LANCE), I284A mutant; format: cell-based, human
From the text: as §2, §3

[12] = test system: CLR D287A/RAMP1 (CGRP receptor); test: CGRP-stimulated cAMP (LANCE), D287A mutant; format: cell-based, human; details: residue D287; effect of alanine mutation on CGRP
From the text: as §2, §3

[13] = test system: CLR D280A/RAMP1 (CGRP receptor); test: CGRP-stimulated cAMP (LANCE), D280A mutant; format: cell-based, human
From the text: as §2, §3

[14] = test system: CLR T288A/RAMP1 (CGRP receptor); test: CGRP-stimulated cAMP (LANCE), T288A mutant; format: cell-based, human
From the text: as §2, §3

[15] = test system: mutated CGRP receptors (CLR ECL2 mutants/RAMP1); test: CGRP radioligand binding, mutants with impaired cAMP; details: [^125I] iodohistidyl-human alpha CGRP, Cos 7 cell membranes; mutants with large impairments of cAMP production
From the text: as §1

[16] = test system: CLR ECL2 mutants A271 to I294 with human RAMP1; test: CGRP-stimulated cAMP (LANCE), ECL2 alanine scan; format: cell-based; details: Cos 7 cells
From the text: as §2, §3

[17] = test system: CLR Y278A/RAMP1 (CGRP receptor); test: CGRP-stimulated cAMP (LANCE), Y278A mutant; format: cell-based, human
From the text: as §2, §3

[18] = test system: CLR A273L/RAMP1 (CGRP receptor); test: CGRP-stimulated cAMP (LANCE), A273L mutant; format: cell-based, human; details: residue A273 (mutated to leucine); effect of mutation on CGRP
From the text: as §2, §3

[19] = test system: CLR L291A/RAMP1 (CGRP receptor); test: CGRP-stimulated cAMP (LANCE), L291A mutant; format: cell-based, human
From the text: as §2, §3

affinity for the radioligand [1]: except Y277A
CGRP effect [2]: √
cAMP reduction versus WT (pEC50) ([3]; W283A, Cos 7 cells, 30 min, room temperature): more than 10 fold
CGRP effect ([3]; residue W283, effect of alanine mutation on CGRP): √
potency change versus WT [4]: small increase in potency
cAMP reduction versus WT (pEC50) ([5]; R274A, Cos 7 cells, 30 min, room temperature): more than 10 fold
CGRP effect ([5]; residue R274, effect of alanine mutation on CGRP): √
reduction in EC50 values versus WT ([6]; L290A, Cos 7 cells): approx. eightfold
CGRP effect ([6]; residue L290, effect of alanine mutation on CGRP): √
cAMP reduction versus WT (pEC50) ([7]; C282A, Cos 7 cells, 30 min, room temperature): more than 10 fold
CGRP effect ([7]; residue C282, effect of alanine mutation on CGRP): √
CGRP effect [10]: √
cAMP reduction versus WT (pEC50) ([11]; I284A, Cos 7 cells, 30 min, room temperature): more than 10 fold
CGRP effect ([11]; residue I284, effect of alanine mutation on CGRP): √
CGRP effect [12]: √
cAMP reduction versus WT (pEC50) ([13]; D280A, Cos 7 cells, 30 min, room temperature): more than 10 fold
CGRP effect ([13]; residue D280, effect of alanine mutation on CGRP): √
cAMP reduction versus WT (pEC50) ([14]; T288A, Cos 7 cells, 30 min, room temperature): more than 10 fold
CGRP effect ([14]; residue T288, effect of alanine mutation on CGRP): √
affinity for the radioligand [15]: reduced affinity for the radioligand
cAMP reduction versus WT (pEC50) ([17]; Y278A, Cos 7 cells, 30 min, room temperature): more than 10 fold
CGRP effect ([17]; residue Y278, effect of alanine mutation on CGRP): √
CGRP effect [18]: √
reduction in EC50 values versus WT ([19]; L291A, Cos 7 cells): approx. fourfold
CGRP effect ([19]; residue L291, effect of alanine mutation on CGRP): √
Substance: calcitonin gene-related peptide [CGRP]
maximal cAMP response (Emax) versus WT [8]: significant but small increases in maximal cAMP response
maximal cAMP response (Emax) versus WT [9]: significant but small increases in maximal cAMP response
pEC50 of mutants versus WT ([16]; 24 single mutants): 14 of the 24 mutants were significantly different to WT
pEC50 change versus WT ([16]; six further mutants (not given)): small but significant reductions in pEC50
